Data set [1] in a line: Body weight, mortality and signs of overt toxicity in MCF-7 implanted female nude (nu/nu) mice. It counts as in vivo, mouse. The protocol:
In a xenograft tumor model of human breast adenocarcinoma, MCF-7 (ATCC HTB-22) cells were subcutaneously (SC) implanted (2.0×10^7 cells in 1:1 matrigel/media mixture at 0.2 mL/mouse) into the right flank of female athymic (nu/nu) nude mice. Supplemental injections of estradiol cyclopentyl propionate (100 μg/mouse) were administered subcutaneously between the scapulae twice weekly, from one week prior to cell implantation to study completion. Tumor-implanted mice were divided into eleven treatment groups, each group containing six animals, and test agent administrations were initiated one day after cell implantation (denoted as Day 1). 3.1 Test Substances and Dosing Pattern
Two control groups received intravenous injections of vehicle (25 mM Sodium Citrate, pH 6.5+100 mM NaCl) once weekly for either six weeks (group 1) or two weeks (group 2). […] Test substance, OBI-888, was dosed at 10 mg/kg once weekly for 2 weeks, and at 0.3, 1 and 3 mg/kg once weekly for six weeks. Test substance, MMAE, was dosed at 0.057 mg/kg once weekly for six weeks.
Female (nu/nu) nude mice aged 6-7 weeks obtained from BioLasco Taiwan (under Charles River Laboratories Licensee) were used. The animals were housed in individually ventilated cages (IVG, 36 Mini Isolator System). The allocation for 3-5 animals was 27×20×14 in cm. All animals were maintained in a hygienic environment under controlled temperature (20-24° C.) and humidity (30-70%) with 12-hour light/dark cycle. Free access to standard lab diet (Oriental Yeast Co., Ltd., Japan) and autoclaved tap water were granted. All aspects of this work including housing, experimentation, and animal disposal were performed in general accordance with the “Guide for the Care and Use of Laboratory Animals: Eighth Edition” (National Academies Press, Washington, D.C., 2011) in our AAALAC-accredited laboratory animal facility. In addition, the animal care and use protocol was reviewed and approved by the IACUC at Eurofins Panlabs Taiwan, Ltd.
The tumor volumes, body weights, mortality, and signs of overt toxicity were monitored and recorded twice weekly for 77 days. Tumor volume (mm^3) was calculated according to the formula for a prolate ellipsoid: length (mm)×[width (mm)]^2×0.5. Tumor growth inhibition was calculated as T/C (treatment/control)×100%. A T/C value≤42% was considered significant anti-tumor activity. Two-way ANOVA followed by Bonferroni test was used to ascertain the statistical significance of groups compared to respective vehicle control (*p<0.05).

Data set [2] can be described thus: Body weight, mortality and signs of overt toxicity in NCI-N87 implanted female nu/nu mice. The data set is classed as in vivo, mouse. Conditions: 0.191 mg/kg × 4 IP once weekly; group mean. The protocol: In a xenograft tumor model of human gastric carcinoma, viable NCI-N87 (ATCC CRL-5822) cells were subcutaneously (SC) implanted (2.5×10^6 cells/mL with matrigel (1:1) at 0.2 mL/mouse) into the right flank of female nu/nu mice. Tumor implanted mice were divided into seven treatment groups, each group containing eight animals, and one group containing five animals, and dose administrations were initiated one day after cell implantation (denoted as Day 1).
Female nude (nu/nu) mice aged 5-6 weeks obtained from BioLasco Taiwan (under Charles River Laboratories Licensee) were used. The animals were housed in individually ventilated cages (IVC, 36 Mini Isolator system). The allocation for 3 animals was 27×20×14 in cm. All animals were maintained in a hygienic environment under controlled temperature (20-24° C.) and humidity (30%-70%) with 12-hour light/dark cycle. Free access to standard lab diet [MFG (Oriental Yeast Co., Ltd., Japan)] and autoclaved tap water in bottles were granted. All aspects of this work including housing, experimentation, and animal disposal were performed in general accordance with the “Guide for the Care and Use of Laboratory Animals: Eighth Edition” (National Academies Press, Washington, D.C., 2011) in our AAALAC-accredited laboratory animal facility. In addition, the animal care and use protocol was reviewed and approved by the IACUC at Eurofins Panlabs Taiwan, Ltd.
The tumor volumes, body weights, mortality, and signs of overt toxicity were monitored and recorded twice weekly for 100 days. Tumor growth inhibition was calculated as T/C (treatment/control)×100%. A T/C value≤42% compared to that of the vehicle control group was considered significant anti-tumor activity. Two-way ANOVA followed by Bonferroni test was used to ascertain the statistically significant significance of groups compared to respective vehicle control (*p<0.05).

For `CC[C@H](C)[C@@H]([C@@H](CC(=O)N1CCC[C@H]1[C@H](OC)[C@@H](C)C(=O)N[C@H](C)[C@@H](O)c1ccccc1)OC)N(C)C(=O)[C@@H](NC(=O)[C@@H](NC)C(C)C)C(C)C` [MMAE, monomethyl auristatin E], the “Body Weight (g), Mean” value in data set [1] (0.057 mg/kg × 6, IV once weekly, Day 53, group mean) amounted to 25.3 g; in data set [1] (0.057 mg/kg × 6, IV once weekly, Day 56, group mean) it was 25.2 g; in data set [1] (0.057 mg/kg × 6, IV once weekly, Day 60, group mean) it was 26.5 g; in data set [1] (0.057 mg/kg × 6, IV once weekly, Day 63, group mean), 26.5 g; in data set [1] (0.057 mg/kg × 6, IV once weekly, Day 67, group mean) it was 26.8 g; in data set [1] (0.057 mg/kg × 6, IV once weekly, Day 70, group mean) it was 26.5 g. Further, the “Body Weight (g), Mean” value was 26.3 g in data set [1] (0.057 mg/kg × 6, IV once weekly, Day 77, group mean); 24.8 g in data set [1] (0.057 mg/kg × 6 IV once weekly, Day 12, mean of 6 mice); 25.5 g in data set [1] (0.057 mg/kg × 6 IV once weekly, Day 15, mean of 6 mice); 25.5 g in data set [1] (0.057 mg/kg × 6 IV once weekly, Day 22, mean of 6 mice); 25.2 g in data set [1] (0.057 mg/kg × 6 IV once weekly, Day 26, mean of 6 mice); 25.3 g in data set [1] (Gr. 11, 0.057 mg/kg × 6 IV once weekly, Day 29, group mean). Also, the “Body Weight (g), Mean” value in data set [1] (Gr. 11, 0.057 mg/kg × 6 IV once weekly, Day 33, group mean) was found to be 25.3 g; in data set [1] (Gr. 11, 0.057 mg/kg × 6 IV once weekly, Day 36, group mean), 25.7 g; in data set [1] (Gr. 11, 0.057 mg/kg × 6 IV once weekly, Day 40, group mean), 25.8 g; in data set [1] (Gr. 11, 0.057 mg/kg × 6 IV once weekly, Day 43, group mean) it was 25.2 g; in data set [1] (Gr. 11, 0.057 mg/kg × 6 IV once weekly, Day 46, group mean), 25.2 g; in data set [1] (Gr. 11, 0.057 mg/kg × 6 IV once weekly, Day 49, group mean) it was 25.5 g. Besides, the “Body Weight Day 22, Mean” value in data set [2] is recorded as 24.1 g. Moreover, in data set [2], the “Body Weight Day 29, Mean” value is 25.3 g. The “Body Weight Day 39, Mean” value in data set [2] is on record as 25.7 g. Moreover, the “Body Weight Day 43, Mean” value in data set [2] is reported as 25.7 g. Moreover, the “Body Weight Day 46, Mean” value in data set [2] was found to be 26.3 g. Also, in data set [2], the “Body Weight Day 53, Mean” value is 26.6 g.

Values taken from US11000601B2, “Conjugated biological molecules, pharmaceutical compositions and methods” (OBI Pharma, Inc., priority 2016, dated 2021).
